The entries are a selection whose mix differs from that of the whole data set. Potency and affinity values are given separately. Some results for these compounds are left out of this collection, so the calls shown say nothing about other tests. Active and inactive are the calls of the source. No stated cut-off is given here; in the data, active means cytotoxicity above about 50%; inactive means the rest.
Experiment: cytotoxicity in HPDE-C7 cells, cell-based, fluorescence, HTS (AID 430);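 further: cells exposed to compound for 48 hours before viability readout; 0% = vehicle and 100% = reference cytotoxic drug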
Conditions: HPDE-C7 pancreatic duct cells viability, at 10 µM, active compounds read high
For `O=C(OC1CN2CCC1CC2)C(CO)(c1ccccc1)c1ccccc1` (configuration not stated), the cytotoxicity was inactive: 7.9%. For `CN(C)c1cccc(C(=O)NCC2(N(C)C)CCCCC2)c1`, the cytotoxicity was inactive: -0.3%.

Reference: PubChem BioAssay AID430 (Sanford-Burnham Center for Chemical Genomics, 2006)
